Tested on: Nc1ncnc2c1ncn2[C@@H]1O[C@H](COP(=O)(O)OP(=O)(O)OP(=O)(O)O)[C@@H](O)[C@H]1O
Assay: purified protein
Conditions: pH 7.0, 45 °C, 100 mM Mg2+, glutamate and NH4+ as co-substrates, range 0.5-5 mM

Substance: rTsGS (Trichinella spiralis)
- Km: 160 µM

From publication PMC8488193, “Characterization of a Novel Glutamine Synthetase From Trichinella spiralis and Its Participation in Larval Acid Resistance, Molting, and Development” (Frontiers in Cell and Developmental Biology, 2021)
